Earlier results as cited in PMC9993015.

Target: histone H3 (Homo sapiens) (UniProt P68431)
Settings: cited from earlier work

Substance: FMRP (from UniProt Q06787)
- Kd: 135 nM
